From patent US9914740B2 (priority 2013, dated 2018)

By UniProt entry, the sequences of proteins in these tests, tags left out.
UniProt O75116, whole entry, species assumed: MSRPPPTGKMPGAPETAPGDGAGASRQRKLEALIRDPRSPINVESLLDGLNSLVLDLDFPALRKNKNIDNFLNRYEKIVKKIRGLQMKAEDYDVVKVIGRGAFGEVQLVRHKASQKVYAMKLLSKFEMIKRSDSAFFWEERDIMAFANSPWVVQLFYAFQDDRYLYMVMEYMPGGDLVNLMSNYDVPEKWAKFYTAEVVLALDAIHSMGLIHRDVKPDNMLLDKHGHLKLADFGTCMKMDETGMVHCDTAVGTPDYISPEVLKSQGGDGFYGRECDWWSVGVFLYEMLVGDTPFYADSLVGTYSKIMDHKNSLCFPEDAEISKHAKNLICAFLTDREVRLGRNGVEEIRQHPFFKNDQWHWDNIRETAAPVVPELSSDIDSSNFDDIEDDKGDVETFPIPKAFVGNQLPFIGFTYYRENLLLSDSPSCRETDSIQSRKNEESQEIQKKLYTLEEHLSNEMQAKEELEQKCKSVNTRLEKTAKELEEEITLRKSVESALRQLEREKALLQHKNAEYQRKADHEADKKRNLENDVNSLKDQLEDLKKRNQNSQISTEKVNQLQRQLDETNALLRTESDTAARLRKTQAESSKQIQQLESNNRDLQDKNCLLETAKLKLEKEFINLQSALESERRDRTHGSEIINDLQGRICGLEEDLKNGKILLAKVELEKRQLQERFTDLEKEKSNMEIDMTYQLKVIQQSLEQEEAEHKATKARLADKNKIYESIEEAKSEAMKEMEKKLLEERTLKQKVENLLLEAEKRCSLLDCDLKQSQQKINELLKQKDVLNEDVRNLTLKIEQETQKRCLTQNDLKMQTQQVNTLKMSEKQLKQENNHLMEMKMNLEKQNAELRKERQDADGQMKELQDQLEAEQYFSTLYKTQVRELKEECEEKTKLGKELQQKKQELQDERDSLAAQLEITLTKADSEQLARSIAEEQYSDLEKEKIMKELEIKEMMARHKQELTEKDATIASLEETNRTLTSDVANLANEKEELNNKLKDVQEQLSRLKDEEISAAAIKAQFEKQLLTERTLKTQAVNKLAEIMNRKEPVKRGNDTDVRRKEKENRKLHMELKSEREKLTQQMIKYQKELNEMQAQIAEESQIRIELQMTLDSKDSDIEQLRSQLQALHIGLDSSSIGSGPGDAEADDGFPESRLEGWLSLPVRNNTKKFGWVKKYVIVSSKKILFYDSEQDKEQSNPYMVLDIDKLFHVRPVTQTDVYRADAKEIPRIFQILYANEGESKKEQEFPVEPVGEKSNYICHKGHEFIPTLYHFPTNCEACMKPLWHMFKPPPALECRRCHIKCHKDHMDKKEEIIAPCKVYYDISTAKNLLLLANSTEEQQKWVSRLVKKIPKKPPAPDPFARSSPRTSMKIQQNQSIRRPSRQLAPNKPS

Biological target: ROCK2 (Homo sapiens (Human), UniProt O75116)
Details: read-out: ROCK2 IC50

## CC(C)(C)OC(=O)N1CCn2c(-c3cccc(CNC(=O)c4ccc5c(c4)OCc4cnccc4-5)c3)cnc2C1 [IV-16, tert-butyl 3-(3-((5H-chromeno[3,4-c]pyridine-8-carboxamido)methyl)phenyl)-5,6-dihydroimidazo [1,2-a]pyrazine-7(8H)-carboxylate]
  IC50: 0.371 µM

## Cn1c(=O)c2cc(C(=O)NCc3ccccc3Cl)ccc2c2ccncc21 [XIII-7, N-[(2-chloro-phenyl)methyl]-5-methyl-6-oxo-5H,6H-benzo[c] 1,7-naphthyridine-8-carboxamide]
  IC50: 0.583 µM

## C[C@@H](NC(=O)c1ccc2c(c1)c(=O)[nH]c1cnccc12)c1ccccc1 [XIII-5, 6-oxo-N-[(1R)-1-phenylethyl]-5H,6H-benzo[c] 1,7-naphthyridine-8-carboxamide]
  IC50: 0.792 µM
